This is a selection; strong and weak results do not stand in their true shares. Activity calls are given as the source filed them. The call rests on the fitted dose curve; in most records, active means well fitted activation curve with a large enough effect; inconclusive means small, poorly fitted or top-dose-only effect; inactive means no such curve, though single readings can be large or run the other way.

By UniProt entry, the sequences of proteins in these tests, tags left out. Where a name states a change or a piece, a line headed by the entry shows the natural chain unless it says otherwise.
UniProt P54803: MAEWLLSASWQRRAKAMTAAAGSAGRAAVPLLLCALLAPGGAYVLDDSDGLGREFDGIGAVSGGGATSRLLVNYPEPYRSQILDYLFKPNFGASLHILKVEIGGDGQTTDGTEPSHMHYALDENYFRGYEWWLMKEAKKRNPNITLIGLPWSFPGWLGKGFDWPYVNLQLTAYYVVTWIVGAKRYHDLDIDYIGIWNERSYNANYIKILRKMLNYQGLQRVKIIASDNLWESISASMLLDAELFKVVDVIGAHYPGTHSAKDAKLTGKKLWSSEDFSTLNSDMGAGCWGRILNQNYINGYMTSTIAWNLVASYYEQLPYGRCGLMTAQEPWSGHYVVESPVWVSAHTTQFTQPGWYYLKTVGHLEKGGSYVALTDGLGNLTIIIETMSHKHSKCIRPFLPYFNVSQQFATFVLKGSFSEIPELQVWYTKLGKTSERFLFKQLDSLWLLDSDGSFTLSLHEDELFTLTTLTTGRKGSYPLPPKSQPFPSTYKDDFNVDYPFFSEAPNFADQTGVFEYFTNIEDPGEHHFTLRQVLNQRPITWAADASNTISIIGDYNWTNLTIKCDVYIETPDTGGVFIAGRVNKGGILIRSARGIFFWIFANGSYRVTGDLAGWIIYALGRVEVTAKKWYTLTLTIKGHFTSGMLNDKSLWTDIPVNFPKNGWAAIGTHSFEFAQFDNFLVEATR

This experiment deals with Galactocerebrosidase (Homo sapiens) (UniProt P54803). The experiment in a line: A Novel Cell-Based Assay to Identify Small Molecules for B -Galactocerebrosidase. Further: 0% is about no effect; nearly all actives have a fitted effect of over 65% in size. The settings on record: 145M-Twi-hGALC-G270D cells (Twitcher mouse brain line with human GALC G270D), HMU-beta-Gal fluorescence, 48 h; at 57.5 µM (top of the series) unless noted.
Regarding `CCNC(C)Cc1ccc2c(c1)OCO2` (stereo not given), the activation is inactive: -12.1% [at 129 µM].

Turning to `Cc1cc([N+](=O)[O-])cc([N+](=O)[O-])c1O`, the activation is inactive: -10% [at 114 µM].

Regarding `CN(C(=O)Cc1ccccc1)[C@H]1CC[C@@]2(CCCO2)C[C@@H]1N1CCCC1`, the activation is inactive: -15%.

As to `CN(C(=O)Cc1ccc(Cl)c(Cl)c1)[C@H]1CC[C@@]2(CCCO2)C[C@@H]1N1CCCC1`, the activation was inactive: -13%.

For the compound `NC(=O)Nc1ccc([As](=O)(O)O)cc1`, the activation was inactive: -14.2%.

Values taken from PubChem BioAssay AID1159614 (National Center for Advancing Translational Sciences (NCATS), 2016).
